According to DBAASP:
In brackets after ≈: the same amount, converted by molar mass.

Key:
Experiment in all cases: ≥ marks a high value that may be exact or a test limit, other limits are often not marked, values filed in µg/mL are converted to µM
[1] = system: Xanthomonas campestris pv. Vesicatoria 2133-2
[2] = system: Pseudomonas syringae pv. syringae EPS 94
[3] = system: Erwinia amylovora PMV 6076

MIC [1]	MIC [2]	MIC [3]	SMILES
1.77 µM (≈ 4.87 µg/mL)	3.54 µM (≈ 9.75 µg/mL)	6.12 µM (≈ 16.9 µg/mL)	CC[C@H](C)[C@H](NC(=O)CNC(=O)[C@H](C)NC(=O)[C@@H]1CCCN1C(=O)CNC(=O)[C@H](C)NC(=O)[C@H](CC(C)C)NC(=O)[C@H](Cc1ccc(O)cc1)NC(=O)[C@H](CCCCN)NC(=O)[C@H](CC(C)C)NC(=O)[C@@H](NC(=O)[C@H](CCCCN)NC(=O)[C@H](CCCCN)NC(=O)[C@H](Cc1ccccc1)NC(=O)[C@H](CC(C)C)NC(=O)[C@H](CCCCN)NC(=O)[C@@H](N)CCCCN)[C@@H](C)CC)C(=O)NCC(=O)N[C@@H](CCCCN)C(=O)N[C@@H](Cc1ccccc1)C(=O)N[C@@H](CC(C)C)C(=O)N[C@@H](Cc1cnc[nH]1)C(=O)N[C@@H](CO)C(=O)N[C@@H](C)C(=O)N[C@@H](CCCCN)C(=O)O [KKLFKKILKYLAGPAGIGKFLHSAK]
6.12 µM (≈ 19.3 µg/mL)	20 µM (≈ 62.9 µg/mL)	20 µM (≈ 62.9 µg/mL)	CC[C@H](C)[C@H](NC(=O)[C@H](CCC(N)=O)NC(=O)[C@@H](NC(=O)[C@H](C)NC(=O)[C@H](CCC(N)=O)NC(=O)CNC(=O)[C@@H](NC(=O)[C@@H](NC(=O)[C@H](C)NC(=O)[C@@H](NC(=O)[C@H](C)N)C(C)C)C(C)C)C(C)C)[C@@H](C)O)C(=O)N[C@@H](C)C(=O)N[C@@H](CCCCN)C(=O)N[C@@H](CCCCN)C(=O)N[C@@H](CCCCN)C(=O)N[C@@H](CC(C)C)C(=O)N[C@@H](Cc1ccccc1)C(=O)N[C@@H](CCCCN)C(=O)N[C@@H](CCCCN)C(=O)N[C@H](C(=O)N[C@@H](CC(C)C)C(=O)N[C@@H](CCCCN)C(=O)N[C@@H](Cc1ccc(O)cc1)C(=O)N[C@@H](CC(C)C)C(=O)N[C@@H](CCCCN)C(=O)N[C@@H](CC(=O)O)C(=O)N[C@@H](CCC(=O)O)C(=O)N[C@@H](CC(C)C)C(=O)O)[C@@H](C)CC [AVAVVGQATQIAKKKLFKKILKYLKDEL]

SMILES	MIC [1]	MIC [2]	MIC [3]
CC[C@H](C)[C@H](NC(=O)[C@H](CC(C)C)NC(=O)[C@H](C)NC(=O)[C@@H]1CCCN1C(=O)[C@H](CC(C)C)NC(=O)CNC(=O)[C@@H](NC(=O)[C@@H](NC(=O)[C@H](C)NC(=O)[C@@H]1CCCN1C(=O)CNC(=O)[C@H](C)NC(=O)[C@H](CC(C)C)NC(=O)[C@H](Cc1ccc(O)cc1)NC(=O)[C@H](CCCCN)NC(=O)[C@H](CC(C)C)NC(=O)[C@@H](NC(=O)[C@H](CCCCN)NC(=O)[C@H](CCCCN)NC(=O)[C@H](Cc1ccccc1)NC(=O)[C@H](CC(C)C)NC(=O)[C@H](CCCCN)NC(=O)[C@@H](N)CCCCN)[C@@H](C)CC)[C@@H](C)O)[C@@H](C)O)C(=O)N[C@@H](CO)C(=O)N[C@@H](Cc1c[nH]c2ccccc12)C(=O)N[C@@H](CCCCN)C(=O)N[C@@H](CC(=O)O)C(=O)N[C@@H](CCC(=O)O)C(=O)N[C@@H](CC(C)C)C(=O)O [KKLFKKILKYLAGPATTGLPALISWKDEL]	6.12 µM (≈ 19.9 µg/mL)	3.54 µM (≈ 11.5 µg/mL)	6.12 µM (≈ 19.9 µg/mL)
